B1: MINA53 (Homo sapiens) (protein)
chain: MPKKAKPTGSGKEEGPAPCKQMKLEAAGGPSALNFDSPSSLFESLISPIKTETFFKEFWEQKPLLIQRDDPALATYYGSLFKLTDLKSLCSRGMYYGRDVNVCRCVNGKKKVLNKDGKAHFLQLRKDFDQKRATIQFHQPQRFKDELWRIQEKLECYFGSLVGSNVYITPAGSQGLPPHYDDVEVFILQLEGEKHWRLYHPTVPLAREYSVEAEERIGRPVHEFMLKPGDLLYFPRGTIHQADTPAGLAHSTHVTISTYQNNSWGDFLLDTISGLVFDTAKEDVELRTGIPRQLLLQVESTTVATRRLSGFLRTLADRLEGTKELLSSDMKKDFIMHRLPPYSAGDGAELSTPGGKLPRLDSVVRLQFKDHIVLTVLPDQDQSDEAQEKMVYIYHSLKNSRETHMMGNEEETEFHGLRFPLSHLDALKQIWNSPAISVKDLKLTTDEEKESLVLSLWTECLIQVV
B2: NO66 (Homo sapiens) (protein)
chain: MDGLQASAGPLRRGRPKRRRKPQPHSGSVLALPLRSRKIRKQLRSVVSRMAALRTQTLPSENSEESRVESTADDLGDALPGGAAVAAVPDAARREPYGHLGPAELLEASPAARSLQTPSARLVPASAPPARLVEVPAAPVRVVETSALLCTAQHLAAVQSSGAPATASGPQVDNTGGEPAWDSPLRRVLAELNRIPSSRRRAARLFEWLIAPMPPDHFYRRLWEREAVLVRRQDHTYYQGLFSTADLDSMLRNEEVQFGQHLDAARYINGRRETLNPPGRALPAAAWSLYQAGCSLRLLCPQAFSTTVWQFLAVLQEQFGSMAGSNVYLTPPNSQGFAPHYDDIEAFVLQLEGRKLWRVYRPRVPTEELALTSSPNFSQDDLGEPVLQTVLEPGDLLYFPRGFIHQAECQDGVHSLHLTLSTYQRNTWGDFLEAILPLAVQAAMEENVEFRRGLPRDFMDYMGAQHSDSKDPRRTAFMEKVRVLVARLGHFAPVDAVADQRAKDFIHDSLPPVLTDRERALSVYGLPIRWEAGEPVNVGAQLTTETEVHMLQDGIARLVGEGGHLFLYYTVENSRVYHLEEPKCLEIYPQQADAMELLLGSYPEFVRVGDLPCDSVEDQLSLATTLYDKGLLLTKMPLALN

Substrate: O=C(O)CCC(=O)C(=O)O
Test: purified protein, by the assay type
Settings: other: 2OG, n = 4, n = 3, means ± 95% confidence
[1] = Fe(II): MINA53 (Met26-Val464), peptide: MINA53 (Met1-Val464)
[2] = Fe(II): NO66 (Ser183-Asn641), peptide: NO66 (Gln116-Asn641)

Protein	Km [1] [µM]	Vmax [1] [µM/min]	Km [2] [µM]	Vmax [2] [µM/min]
B1	3.2 ± 0.6	0.32 ± 0.03	–	–
B2	–	–	0.83 ± 0.09	0.021 ± 0.001

Reference: PMC8667043, “First-in-Class Inhibitors of the Ribosomal Oxygenase MINA53” (Journal of Medicinal Chemistry, 2021)
